The target in the assay is [^3H]mazindol binding site, striatal membranes (Mus musculus, UniProt Q61327). In words: biochemical. The protocol:
This group is used only for anatomical studies looking for cell loss in the substantive nigra cells (SNc). All other studies are performed in C57 black mice.

Sequences of proteins named here, by UniProt entry; tags and fusion partners are left off.
UniProt Q61327, whole entry: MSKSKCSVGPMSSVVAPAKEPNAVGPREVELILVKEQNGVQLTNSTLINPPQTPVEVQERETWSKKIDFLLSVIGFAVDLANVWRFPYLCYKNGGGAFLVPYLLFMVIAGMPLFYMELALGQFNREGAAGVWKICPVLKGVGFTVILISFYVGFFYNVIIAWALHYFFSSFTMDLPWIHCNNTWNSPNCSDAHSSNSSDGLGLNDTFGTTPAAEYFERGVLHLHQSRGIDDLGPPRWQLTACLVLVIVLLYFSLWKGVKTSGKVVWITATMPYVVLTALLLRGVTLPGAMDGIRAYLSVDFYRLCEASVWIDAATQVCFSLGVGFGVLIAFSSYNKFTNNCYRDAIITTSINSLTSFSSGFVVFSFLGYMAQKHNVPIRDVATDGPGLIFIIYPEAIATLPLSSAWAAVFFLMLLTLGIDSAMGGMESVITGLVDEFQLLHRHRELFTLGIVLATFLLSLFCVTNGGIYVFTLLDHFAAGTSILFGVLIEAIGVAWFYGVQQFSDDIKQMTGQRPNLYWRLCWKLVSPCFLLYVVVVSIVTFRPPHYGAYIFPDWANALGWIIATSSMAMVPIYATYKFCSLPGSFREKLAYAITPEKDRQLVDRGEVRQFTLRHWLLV

As a reminder, the Kd is the constant that tells how readily two partners part at equilibrium.

For `OC1(c2ccc(Cl)cc2)c2ccccc2C2=NCCN21` (stereo not shown) [[^3H]Mazindol, mazindol], the affinity, expressed as Kd, was 17.6 nM.

(Values after patent EP0434750B1 (priority 1988, dated 1990).)
